pIC50: −log10 of the molar value.
Columns and labels:
[1] = target: human TLR9 (Homo sapiens, UniProt Q9NR96); assay: TLR9 inhibition reporter assay (HEK-Blue cells, SEAP reporter, ODN2006 stimulation); details: read-out: TLR9 IC50; HEK-Blue cells overexpressing human TLR9, SEAP reporter, ODN2006 5 nM
Description: (§1) TLR7/8/9 Inhibition Reporter Assays
(§2) HEK-Blue™-cells (Invivogen) overexpressing human TLR7, TLR8 or TLR9 receptors were used for screening inhibitors of these receptors using an inducible SEAP (secreted embryonic alkaline phosphatase) reporter gene under the control of the IFN-β minimal promoter fused to five NF-κB and AP-1-binding sites. Briefly, cells are seeded into Greiner 384 well plates (15000 cells per well for TLR7, 20,000 for TLR8 and 25,000 for TLR9) and then treated with test compounds in DMSO to yield a final dose response concentration range of 0.05 nM-50 μM. After a 30 minute compound pre-treatment at room temperature, the cells are then stimulated with a TLR7 ligand (gardiquimod at a final concentration of 7.5 μM), TLR8 ligand (R848 at a final concentration of 15.9 μM) or TLR9 ligand (ODN2006 at a final concentration of 5 nM) to activate NF-κB and AP-1 which induce the production of SLA After a 22 hour incubation at 37° C., […], SEAP levels are determined with the addition of HEK-Blue™ Detection reagent (Invivogen), a cell culture medium that allows for detection of SLAP, according to manufacturer's specifications. The percent inhibition is determined as the % reduction in the HEK-Blue signal present in wells treated with agonist plus DMSO alone compared to wells treated with a known inhibitor.

Sequences of proteins named here, by UniProt entry; tags and fusion partners are left off. Residues count along the entry.
UniProt Q9NR96, 26-1032 limits assumed: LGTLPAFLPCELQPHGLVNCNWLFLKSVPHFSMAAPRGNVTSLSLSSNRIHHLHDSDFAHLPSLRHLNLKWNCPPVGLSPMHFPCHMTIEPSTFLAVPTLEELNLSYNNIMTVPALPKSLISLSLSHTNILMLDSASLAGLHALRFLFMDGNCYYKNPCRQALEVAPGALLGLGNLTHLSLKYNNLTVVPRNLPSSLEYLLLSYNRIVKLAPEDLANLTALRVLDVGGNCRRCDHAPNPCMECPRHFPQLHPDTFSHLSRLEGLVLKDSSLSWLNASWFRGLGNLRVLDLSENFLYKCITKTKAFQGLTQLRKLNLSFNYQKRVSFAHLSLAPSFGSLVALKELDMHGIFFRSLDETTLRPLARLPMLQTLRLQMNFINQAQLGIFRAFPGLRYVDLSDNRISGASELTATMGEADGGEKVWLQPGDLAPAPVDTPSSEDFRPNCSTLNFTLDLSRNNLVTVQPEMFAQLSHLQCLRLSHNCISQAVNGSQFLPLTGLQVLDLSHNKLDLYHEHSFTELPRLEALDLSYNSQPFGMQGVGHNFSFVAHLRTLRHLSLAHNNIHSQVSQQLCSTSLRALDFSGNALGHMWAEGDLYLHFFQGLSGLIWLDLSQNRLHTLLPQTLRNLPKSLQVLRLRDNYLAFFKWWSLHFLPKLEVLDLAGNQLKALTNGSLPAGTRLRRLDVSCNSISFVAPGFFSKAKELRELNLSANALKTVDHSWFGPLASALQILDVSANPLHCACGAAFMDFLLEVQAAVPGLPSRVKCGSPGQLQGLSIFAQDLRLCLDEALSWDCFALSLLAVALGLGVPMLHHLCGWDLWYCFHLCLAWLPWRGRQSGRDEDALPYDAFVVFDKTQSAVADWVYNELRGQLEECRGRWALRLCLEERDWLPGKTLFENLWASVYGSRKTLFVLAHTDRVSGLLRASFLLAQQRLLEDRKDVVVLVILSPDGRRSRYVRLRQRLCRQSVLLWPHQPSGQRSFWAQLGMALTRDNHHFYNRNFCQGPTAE
UniProt Q9NR97, 27-1041 limits assumed: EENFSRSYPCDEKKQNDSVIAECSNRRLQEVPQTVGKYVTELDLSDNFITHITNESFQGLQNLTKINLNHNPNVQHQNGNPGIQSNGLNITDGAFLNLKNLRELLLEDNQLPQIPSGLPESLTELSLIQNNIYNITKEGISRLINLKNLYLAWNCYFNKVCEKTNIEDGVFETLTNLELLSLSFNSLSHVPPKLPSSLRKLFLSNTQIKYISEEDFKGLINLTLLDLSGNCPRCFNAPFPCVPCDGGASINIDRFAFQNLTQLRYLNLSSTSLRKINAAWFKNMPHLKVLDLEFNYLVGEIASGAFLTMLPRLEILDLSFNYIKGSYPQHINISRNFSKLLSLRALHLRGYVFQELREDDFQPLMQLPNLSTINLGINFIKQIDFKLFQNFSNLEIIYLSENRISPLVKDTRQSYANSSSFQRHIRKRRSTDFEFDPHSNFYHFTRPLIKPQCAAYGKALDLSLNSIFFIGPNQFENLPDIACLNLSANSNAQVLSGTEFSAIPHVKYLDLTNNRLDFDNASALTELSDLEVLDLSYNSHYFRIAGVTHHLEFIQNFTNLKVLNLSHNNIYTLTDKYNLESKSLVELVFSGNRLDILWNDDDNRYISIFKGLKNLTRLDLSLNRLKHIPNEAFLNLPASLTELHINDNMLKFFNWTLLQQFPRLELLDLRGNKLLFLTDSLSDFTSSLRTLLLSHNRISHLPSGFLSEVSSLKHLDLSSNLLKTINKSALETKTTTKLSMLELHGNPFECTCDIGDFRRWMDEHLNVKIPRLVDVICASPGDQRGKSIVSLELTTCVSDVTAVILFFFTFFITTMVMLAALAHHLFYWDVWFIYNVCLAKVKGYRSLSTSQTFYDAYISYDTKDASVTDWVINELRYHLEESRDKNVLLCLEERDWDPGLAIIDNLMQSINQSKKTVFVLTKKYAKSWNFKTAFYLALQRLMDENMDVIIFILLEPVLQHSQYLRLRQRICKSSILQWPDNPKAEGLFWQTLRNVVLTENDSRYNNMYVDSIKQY
UniProt Q9NYK1, 27-1049 limits assumed: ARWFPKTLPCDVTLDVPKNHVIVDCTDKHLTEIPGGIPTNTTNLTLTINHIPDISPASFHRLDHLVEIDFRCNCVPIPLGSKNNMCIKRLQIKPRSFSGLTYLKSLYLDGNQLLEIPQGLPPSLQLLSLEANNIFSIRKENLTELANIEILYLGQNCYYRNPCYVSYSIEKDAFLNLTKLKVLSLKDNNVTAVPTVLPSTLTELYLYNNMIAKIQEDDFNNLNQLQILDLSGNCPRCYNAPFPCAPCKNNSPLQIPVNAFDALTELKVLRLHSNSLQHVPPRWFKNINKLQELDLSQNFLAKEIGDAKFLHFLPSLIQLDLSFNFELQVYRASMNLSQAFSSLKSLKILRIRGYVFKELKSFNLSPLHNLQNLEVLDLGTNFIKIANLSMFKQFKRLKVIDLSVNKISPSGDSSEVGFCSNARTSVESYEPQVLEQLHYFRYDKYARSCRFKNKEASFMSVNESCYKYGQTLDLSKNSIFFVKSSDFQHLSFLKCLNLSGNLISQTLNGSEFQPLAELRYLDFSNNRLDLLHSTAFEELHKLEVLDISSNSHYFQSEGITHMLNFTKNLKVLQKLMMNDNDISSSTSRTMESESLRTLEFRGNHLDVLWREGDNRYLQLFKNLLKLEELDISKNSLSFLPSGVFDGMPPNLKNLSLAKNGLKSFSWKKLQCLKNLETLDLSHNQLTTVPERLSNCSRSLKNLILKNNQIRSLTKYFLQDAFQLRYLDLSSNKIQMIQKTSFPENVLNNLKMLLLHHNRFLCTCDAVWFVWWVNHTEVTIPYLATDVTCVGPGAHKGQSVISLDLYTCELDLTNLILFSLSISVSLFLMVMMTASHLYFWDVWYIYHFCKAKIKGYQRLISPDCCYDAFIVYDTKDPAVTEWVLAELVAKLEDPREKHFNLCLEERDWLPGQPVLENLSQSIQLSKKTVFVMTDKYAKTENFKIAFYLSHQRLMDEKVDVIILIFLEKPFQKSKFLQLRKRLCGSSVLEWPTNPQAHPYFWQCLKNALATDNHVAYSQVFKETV

[2] = target: human TLR8 (Homo sapiens, UniProt Q9NR97); assay: TLR8 inhibition reporter assay (HEK-Blue cells, SEAP reporter, R848 stimulation); details: read-out: TLR8 IC50; HEK-Blue cells overexpressing human TLR8, SEAP reporter, R848 15.9 μM
Description: as §1, §2

[3] = target: human TLR7 (Homo sapiens, UniProt Q9NYK1); assay: TLR7 inhibition reporter assay (HEK-Blue cells, SEAP reporter, gardiquimod stimulation); details: read-out: TLR7 IC50; HEK-Blue cells overexpressing human TLR7, SEAP reporter, gardiquimod 7.5 μM
Description: as §1, §2

pIC50 [1] | pIC50 [2] | pIC50 [3] | Structure (SMILES)
5.00 | 8.29 | 8.47 | Cc1cc(-c2c(C(C)C)c(C(=O)NC3CCN(C(C)C)CC3)nn2C)cn2ncnc12 [Example 188, 4-isopropyl-N-(1-isopropylpiperidin-4-yl)-1-methyl-5-(8-methyl-[1,2,4]triazolo[1,5-a]pyridin-6-yl)-1H-pyrazole-3-carboxamide]
5.35 | 8.17 | 8.10 | COCCN1CCC(c2ccc(-c3n[nH]c(-c4cc(OC)c5ncnn5c4)c3C(C)C)nc2)CC1
4.83 | 8.91 | 8.55 | Cc1cc(-c2[nH]nc(C(=O)NC3CCN(CCS(C)(=O)=O)CC3)c2C(C)C)cn2ncnc12
